According to PubChem BioAssay AID540295 (The Scripps Research Institute Molecular Screening Center, 2011):
The list shows a part of the results, in another mix than the full data. Active and inactive are the calls of the source.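 How the source made its calls: active means inhibition above its plate's cutoff, the mean of tested wells on that plate plus 3 SD (cut at about 29% in these data); inactive means the rest.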

By UniProt entry, the sequences of proteins in these tests, tags left out.
UniProt P32245, whole entry: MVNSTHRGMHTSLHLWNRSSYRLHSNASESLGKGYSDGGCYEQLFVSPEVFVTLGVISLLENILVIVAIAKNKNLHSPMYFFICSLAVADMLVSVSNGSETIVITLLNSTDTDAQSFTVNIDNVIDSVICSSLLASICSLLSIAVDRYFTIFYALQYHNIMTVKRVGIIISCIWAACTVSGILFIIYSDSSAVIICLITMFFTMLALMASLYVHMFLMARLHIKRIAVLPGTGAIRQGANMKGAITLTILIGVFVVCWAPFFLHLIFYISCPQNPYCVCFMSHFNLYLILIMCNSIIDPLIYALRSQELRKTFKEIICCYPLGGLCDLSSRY

The compounds below were run against Melanocortin receptor 4 (Homo sapiens) (UniProt P32245) (assay: MC4R antagonists of cAMP signaling, primary screen, cell-based, TR-FRET, antagonist arm of biased-ligand search (AID 540295;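 further: 0% = Melanotan II alone and 100% = Melanotan II plus saturating MCL0020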)). Conditions: MC4R-expressing cells, MTII-stimulated cAMP, LANCE TR-FRET; at 6.5 µM; active compounds read high.

Row | Compound | inhibition
1 | CCN1CCC(Nc2cccc(F)c2)CC1 | inactive: 10.7%
2 | Cc1ccccc1NC1(C#N)CCN(Cc2ccccc2)CC1 | inactive: 3.01%
3 | CN(C)c1ccc(C(=O)NCC2(N3CCCCC3)CCCCC2)cc1 | inactive: 12.5%
4 | Cn1c(=O)[nH]cc(N(CCCl)CCCl)c1=O | inactive: 6.56%
5 | O=C(NCC1(N2CCCCC2)CCCCC1)c1ccco1 | inactive: 11.1%
6 | COc1cc(OC)cc(C(=O)NCC2(N3CCCCC3)CCCCC2)c1 | inactive: 12.4%
7 | CC(=O)N(c1ccccc1)C1CCNCC1 | inactive: 0.15%
8 | Cc1ccc(NC2(C#N)CCN(Cc3ccccc3)CC2)cc1 | inactive: -0.5%
9 | Fc1ccccc1NC1CCN(Cc2ccccc2)CC1 | inactive: -1.34%
10 | Cc1ccc(C(=O)NCC2(N3CCCCC3)CCCCC2)o1 | inactive: 5.48%
11 | CCC(CO)(C(=O)OC1CN2CCC1CC2)c1ccccc1 (stereo not given) | inactive: -2.45%
12 | COc1cccc(C(=O)N(c2cc(C)cc(C)c2)C2CCN(C(=O)OC(C)(C)C)CC2)c1 | inactive: 3.62%
13 | COc1cc(OC)cc(C(=O)NCC2(N3CCOCC3)CCCCC2)c1 | inactive: -0.15%
14 | CN1CCC(Nc2ccc(Cl)cc2)CC1 | inactive: 11.5%
15 | CN1CCC(Nc2ccc(F)c(Cl)c2)CC1 | inactive: 0.09%
16 | CCOc1ncccc1C(=O)NCC1(N2CCOCC2)CCCCC1 | inactive: 17.2%
17 | CCCOc1ccc(C(=O)NCC2(N(C)C)CCCCC2)cc1 | inactive: 11.2%
18 | O=C(O)C1(Nc2ccccc2)CCN(Cc2ccccc2)CC1 | inactive: 9.16%
19 | CC(C)(C)OC(=O)N1CCC(Nc2ccccc2)CC1 | inactive: -9.49%
20 | N/C(=N\O)c1c(N)no[n+]1[O-] | inactive: 21.4%
21 | CCOC(=O)N1CCC(Nc2ccc(C)cc2)CC1 | inactive: -0.26%
22 | O=C(OC1CN2CCC1CC2)C1c2ccccc2C=Cc2ccccc21 (stereo not given) | inactive: 7.21%
23 | O=C(NCC1(N2CCOCC2)CCCCC1)c1cc(Br)ccc1Cl | inactive: 12%
24 | COc1cc(C(=O)NCC2(N3CCOCC3)CCCCC2)cc(OC)c1C | inactive: 3.65%
25 | COc1ccc(C(=O)NCC2(N3CCOCC3)CCCCC2)cc1OC | inactive: -4.92%

Row | Compound | inhibition
26 | CCCN1CCC(Nc2cc(OC)cc(OC)c2)CC1 | inactive: -5.03%
27 | Cc1cc(N(CCCl)CCCl)ccc1C=O | inactive: -3.06%
28 | c1ccc(CN2CCC(Nc3ccccc3)CC2)cc1 | inactive: 7.97%
29 | CN(C)C1(CNC(=O)c2cccc(C#N)c2)CCCCC1 | inactive: 1.45%
30 | CC(C)(C)OC(=O)N1CCC(N(C(=O)c2ccccc2)c2ccc(Cl)cc2)CC1 | inactive: 9.06%
31 | N#Cc1ccc(C(=O)NCC2(N3CCCCC3)CCCCC2)cc1 | inactive: 7.64%
32 | O=C(NCC1(N2CCCCC2)CCCCC1)c1cccc(C(F)(F)F)c1 | inactive: 5.5%
33 | COc1ccc(NC2CCN(C(=O)OC(C)(C)C)CC2)cc1 | inactive: 3.89%
34 | CC(C)c1ccc(C(=O)NCC2(N3CCOCC3)CCCCC2)cc1 | inactive: 5.08%
35 | CN1CCN(CCOC(=O)C(O)(c2ccccc2)c2ccccc2)CC1 | inactive: -4.23%
36 | O=C(NCC1(N2CCOCC2)CCCCC1)c1cc(=O)[nH]c2ccccc12 | inactive: 5.57%
37 | COc1cc(C(=O)NCC2(N3CCCCC3)CCCCC2)ccc1OC(F)F | inactive: 6.36%
38 | O=C(NCC1(N2CCCCC2)CCCCC1)c1ccc(OC(F)F)cc1 | inactive: 6.72%
39 | O=C(NCC1(N2CCCCC2)CCCCC1)c1cccc([N+](=O)[O-])c1 | inactive: 6.33%
40 | CSc1ccc(C(=O)NCC2(N3CCOCC3)CCCCC2)cc1 | inactive: 2.15%
41 | N#CC1(Nc2ccccc2)CCN(CCc2ccccc2)CC1 | inactive: 11.1%
42 | CCN1CCC(Nc2ccc(Cl)cc2)CC1 | inactive: 4.76%
43 | CN1CCC(Nc2cccc(F)c2)CC1 | inactive: 9.73%
44 | O=C(NCC1(N2CCCCC2)CCCCC1)c1cncc(Br)c1 | inactive: -1.73%
45 | CCCOc1ccc(C(=O)NCC2(N(C)C)CCCCC2)cc1OC | inactive: 8.18%
46 | Cc1ccc(C(=O)NCC2(N(C)C)CCCCC2)o1 | inactive: 2.45%
47 | CN(C)c1cccc(C(=O)NCC2(N3CCCCC3)CCCCC2)c1 | inactive: 8%
48 | COc1ccc(CN(CCCl)CCCl)cc1Cl | inactive: -5.37%
49 | CC(C)c1ccc(NC2CCN(C(=O)OC(C)(C)C)CC2)cc1 | inactive: 23.1%
50 | O=C(NCC1(N2CCOCC2)CCCCC1)c1cc(F)c(F)cc1Cl | inactive: 0.8%

Row | Compound | inhibition
51 | COc1cc(OC)c(C(=O)NCC2(N(C)C)CCCCC2)cc1OC | inactive: -1.37%
52 | O=C(NCC1(N2CCOCC2)CCCCC1)c1cc2ccccc2o1 | inactive: 11.6%
53 | Cc1cc(C)cc(N(C(=O)c2ccccc2)C2CCN(C(=O)OC(C)(C)C)CC2)c1 | inactive: 6.38%
54 | O=C(NCC1(N2CCCCC2)CCCCC1)c1ccc(Cl)nc1 | inactive: 13.5%
55 | CCOC(=O)N1CCC(Nc2ccc(OC)cc2)CC1 | inactive: 9.11%
56 | COc1ccc(Cl)cc1C(=O)NCC1(N2CCOCC2)CCCCC1 | inactive: 5.69%
57 | O=C(NCC1(N2CCCCC2)CCCCC1)c1ccc(Cl)s1 | inactive: -0.42%
58 | N#CC1(Nc2ccccc2)CCN(Cc2ccccc2)CC1 | inactive: 5.5%
59 | O=C(OC1CN2CCC1CC2)C1c2ccccc2Oc2ccccc21 (stereo not given) | inactive: 7.44%
60 | O=C(NCC1(N2CCCCC2)CCCCC1)c1cccs1 | inactive: -2.21%
61 | O=C(NCC1(N2CCCCC2)CCCCC1)c1ccc(=O)[nH]c1 | inactive: 11.7%
62 | COc1ccc(C(=O)NCC2(N3CCCCC3)CCCCC2)c(OC)c1OC | inactive: -1.3%
63 | CC(C)(C)OC(=O)N1CCC(N(C(=O)c2ccccc2)c2ccc(F)cc2)CC1 | inactive: -6.29%
64 | COc1ccc(C(=O)NCC2(N3CCCCC3)CCCCC2)cc1 | inactive: 3.01%
65 | Cc1cccc(NC2(C#N)CCN(Cc3ccccc3)CC2)c1 | inactive: 9.81%
66 | CSc1ccccc1C(=O)NCC1(N2CCCCC2)CCCCC1 | inactive: 4.94%
67 | CCOC(=O)N1CCC(Nc2cccc(C)c2)CC1 | inactive: 6.36%
68 | COc1cc(C(=O)NCC2(N(C)C)CCCCC2)ccc1OC(F)F | inactive: 4.45%
69 | CCOc1ccc(C)cc1CN(CCCl)CCCl | inactive: 17.4%
70 | O=C1CCN(Cc2ccccc2)CC1 | inactive: 15.1%
71 | CCOC(=O)N1CCC(Nc2ccc(F)cc2)CC1 | inactive: -1.2%
72 | COc1ccc(NC2CCN(CCc3ccccc3)CC2)c(OC)c1 | inactive: 13.6%
73 | CCCCOc1ccc(C(=O)NCC2(N3CCOCC3)CCCCC2)cc1 | inactive: 4.99%
74 | O=P1(N(CCCl)CCCl)SCCCS1 | inactive: 2.79%
75 | O=C(NCC1(N2CCCCC2)CCCCC1)c1ccc(F)cc1 | inactive: -4.67%
